Measurements: patent publication EP2848693A1, “Concatenation of halogenated alkenyl diphosphate derivatives” (LANXESS Deutschland GmbH, priority 2013, dated 2015)

Sequences of proteins named here, by UniProt entry; tags and fusion partners are left off.
UniProt P60472, whole entry: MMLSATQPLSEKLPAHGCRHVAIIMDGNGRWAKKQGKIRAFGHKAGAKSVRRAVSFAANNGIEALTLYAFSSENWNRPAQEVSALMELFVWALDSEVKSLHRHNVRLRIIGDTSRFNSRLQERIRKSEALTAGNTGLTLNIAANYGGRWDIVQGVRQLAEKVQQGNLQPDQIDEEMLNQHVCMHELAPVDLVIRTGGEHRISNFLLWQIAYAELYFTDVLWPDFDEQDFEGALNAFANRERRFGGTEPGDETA

Biological target: E. coli Undecaprenyldiphosphatsynthase (EcUPPS) (Escherichia coli, UniProt P60472)
Assay: MTP phosphate detection assay (diphosphate release, BIOMOL Green), substrate kinetics
Details: for rel. kcat Km^-1: relative to natural substrate FPP (100 %); for Km: starter substrate varied 80 - 0 µM, elongation substrate IPP constant 150 µM, 22°C; for kcat / vmax: starter substrate varied, IPP constant 150 µM

SMILES | rel. kcat Km^-1 [%] | Km [µM] | kcat | vmax
CC(=CCOP(=O)(O)OP(=O)(O)O)CCc1cccs1 | 8 | 11.6 | 0,3 s^-1 | 8,9 ± 0,6 nkat/mg
C=CCC/C(C)=C/CC/C(C)=C/COP(=O)(O)OP(=O)(O)O | 60 | 2.5 | 0,4 s^-1 | 14,9 ± 0,2 nkat/mg
C/C(=C\COP(=O)(O)OP(=O)(O)O)CC/C=C(\C)CC(=O)c1cccs1 | 3 | 61.1 | 0,5 s^-1 | 18,1 ± 1,5 nkat/mg
CC(=CCOP(=O)(O)OP(=O)(O)O)CCc1ccco1 | 34 | 1.8 | 0,2 s^-1 | 6,1 ± 0,2 nkat/mg
CC(C)=CCC/C(C)=C/COC/C(C)=C/COP(=O)(O)OP(=O)(O)O | 6 | 4.8 | 0,1 s^-1 | 2,9 ± 0,2 nkat/mg
C/C(=C\COP(=O)(O)OP(=O)(O)O)CC/C=C(\C)CO[Si](C)(C)C(C)(C)C | 13 | 10.7 | 0,4 s^-1 | 14,4 ± 0,8 nkat/mg
CC(C)=CCCC#CCC/C(C)=C/COP(=O)(O)OP(=O)(O)O | 33 | 4.2 | 0,4 s^-1 | 13,7 ± 0,3 nkat/mg
C/C(=C\COP(=O)(O)OP(=O)(O)O)CC/C=C(\C)CSc1ccccc1 | 89 | 2.1 | 0,5 s^-1 | 18,5 ± 0,7 nkat/mg
C/C(=C\COP(=O)(O)OP(=O)(O)O)CC/C=C(\C)CC(=O)c1sccc1C | 4 | 9.1 | 0,1 s^-1 | 3,5 ± 0,2 nkat/mg
CC(C)=CCOC/C(C)=C/CC/C(C)=C/COP(=O)(O)OP(=O)(O)O | 2 | 32.1 | 0,2 s^-1 | 6,3 ± 0,3 nkat/mg
CC(C)=CCSC/C(C)=C/CC/C(C)=C/COP(=O)(O)OP(=O)(O)O | 22 | 5.1 | 0,3 s^-1 | 11,5 ± 0,5 nkat/mg
C/C(=C\COP(=O)(O)OP(=O)(O)O)CC/C=C(\C)CC(=O)c1ccco1 | 9 | 38 | 1,0 s^-1 | 33,6 ± 2,1 nkat/mg
C#CCC/C(C)=C/CC/C(C)=C/COP(=O)(O)OP(=O)(O)O | 4 | 6.4 | 0,1 s^-1 | 2,9 ± 0,2 nkat/mg
